The values below come from PMC4909201 (PLoS ONE, 2016).

Test [1] has as its target thrombin binding to immobilized γA/γA-fibrin (Homo sapiens, UniProt P00734). Kind of test: SPR: effect of active site inhibitors on thrombin binding to immobilized γA/γA-fibrin.
The next test has as its target thrombin. The settings on record: thrombin inhibition; cited from earlier work.
Test [2] has as its target thrombin binding to immobilized γA/γ′-fibrin (Homo sapiens, UniProt P00734). Kind of test: SPR: effect of active site inhibitors on thrombin binding to immobilized γA/γ′-fibrin. A general note: In SPR one partner is held on a chip, and binding of the other changes the refractive index at the surface.
Test [3] deals with T1, thrombin binding to GpIbα269-286ppp (Homo sapiens, UniProt P00734).
T1 construct: purchased Enzyme Research Laboratories (South Bend, IN)
Briefly: SPR: effect of active site inhibitors on thrombin binding to immobilized GpIbα269-286ppp. As for the experimental part:
Between runs, flow cells were regenerated with 1 M NaCl for 30 s. […] EC50 values were determined as above. […] Binding affinities were calculated as described above.

For test [4], the target named is T2, 125I-thrombin binding to γA/γ′-fibrin clots (Homo sapiens, UniProt P00734).
T2 construct: purchased Enzyme Research Laboratories (South Bend, IN)
Kind of test: 125I-thrombin binding to γA/γ′-fibrin clots.

Test [5] addresses T3, 125I-thrombin binding to γA/γA-fibrin clots (Homo sapiens, UniProt P00734).
T3 construct: purchased Enzyme Research Laboratories (South Bend, IN)
Kind of test: 125I-thrombin binding to γA/γA-fibrin clots.

The target in test [6] is thrombin binding to immobilized factor Va (Homo sapiens, UniProt P00734). Briefly: SPR: effect of active site inhibitors on thrombin binding to immobilized factor Va.

Structures are written as SMILES.

Turning to `CC1CNc2c(cccc2S(=O)(=O)N[C@@H](CCCNC(=N)N)C(=O)N2CC[C@@H](C)C[C@@H]2C(=O)O)C1` (stereo partly shown) [Argatroban, argatroban], the EC50 (as a rule, the concentration at which the effect is half-maximal) in test [1] is 62.4 ± 4.8 nM; in test [2], 59.4 ± 5.1 nM; in test [3], 161 ± 2.6 nM; in test [6], 23.4 ± 8.8 nM. For the same molecule, the Ki – broadly, the dissociation constant of the complex between target and ligand, obtained from inhibition or displacement – is 19 nM at thrombin, 7 ± 5.6 nM in test [4] and 2.4 ± 1.9 nM in test [5].
